Assay results taken from ChEMBL document CHEMBL1155287, “Discovery of a small molecule inhibitor through interference with the gp120-CD4 interaction” (Bioorg Med Chem Lett, 2009).

Test: Clearance in rat at 1 mg/kg, iv and 1 mg/kg, po
Assay type: ADME, organism-based
Settings: in vivo

In the case of `CNC(=O)c1cc(OC)c(O[C@@H](C)C(=O)N2CCN(C(=O)c3ccccc3)C[C@H]2C)cn1` (mixture of isomers), the clearance is reported as 18 mL/min/kg.
